Earlier results in US11980689B2 (AVALYN PHARMA INC., priority 2013, dated 2024).

System: ALK fusion gene tumors
Details: nausea, vomiting, or diarrhea; cited from earlier work

Structure (SMILES): C[C@@H](Oc1cc(-c2cnn(C3CCNCC3)c2)cnc1N)c1c(Cl)ccc(F)c1Cl [Crizotinib]
- patients with at least one side effect: Approximately 50%
